Assay results as given in patent US8361797B2, “Myeloma cell culture in transferrin-free low iron medium” (Medimmune Limited, priority 2003, dated 2013).
Where two headings read alike, the source gives them in different places.

Format: physicochemical

ferric ammonium citrate [FAC]
precipitate in culture (10 mg/L, Cell line A cultures): a small amount of rust coloured precipitate was observed | precipitate in culture (50 mg/L, Cell line A cultures): observed in much larger quantities | precipitate in culture (50 mg/L, hybridoma cultures): a rust coloured precipitate was seen | precipitate in culture (100 mg/L, Cell line A cultures): observed in much larger quantities | precipitate in culture (100 mg/L, hybridoma cultures): a rust coloured precipitate was seen
